# Antibody variant affinities, Ab-14 heavy chain, assay B

Reference: Li et al. 2023, doi:10.1038/s41467-023-39022-2. File: FLAb, binding data.

The target is the same throughout: PDVDLGDISGINAS, from the HR2 region of SARS-CoV-2 spike.

Ab-14 is the parent antibody, in scFv form: VH, then the linker GGGGSGGGGSGGGGS, then VL. The light chain is unchanged in all variants.
VH: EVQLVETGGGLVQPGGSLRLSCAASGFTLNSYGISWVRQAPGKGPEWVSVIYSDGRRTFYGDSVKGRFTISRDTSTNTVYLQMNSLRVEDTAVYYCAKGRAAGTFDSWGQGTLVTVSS
VL: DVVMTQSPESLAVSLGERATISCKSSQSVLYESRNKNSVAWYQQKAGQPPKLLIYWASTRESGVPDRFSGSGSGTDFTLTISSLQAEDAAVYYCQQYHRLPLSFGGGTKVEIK

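The parent was found by panning a naive human phage display library on the peptide. This is the validation round: designs drawn from the data on random variants, tested in the same kind of assay. Their group label is 14H_En_Gibbs (En: ensemble of fine-tuned language models; Gibbs: Gibbs sampling). The scFvs were displayed on barcoded MATa yeast, the peptide on MATalpha yeast. After mating in shaken culture at 30 °C for 16 h, diploids were selected and their barcode pairs sequenced. Scores were corrected for input abundance and mapped to Kd with protein pairs of known affinity run in the same pool. There are six technical replicates.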

Variants are written as CDR1, CDR2 and CDR3 of the heavy chain (limits as in the source). Parent: GFTLNSYGIS, VIYSDGRRTFYGDSVK, GRAAGTFDS. Scale: log10 of Kd in nM, estimated from mating counts; low values are strong binders. "n.d." means that the variant was in the library but no mating with the target was seen in that replicate; the authors take this as a sign of poor binding, and no number exists. The parent sequence was in this pool as ten entries: three were never detected, three once, and four in most replicates, with averages from 0.34 to 2.37. The range of this assay differs from that of the first round, and the authors advise against merging the two. Three control strains display no target. For all heavy chain designs, 1% of the pairings with them gave a signal, with a median of 2.08 and one signal in twenty below 0.84, so weak values seen in few replicates may be background. For each scFv, signals with the empty controls are counted beside the result, with their mean in brackets. The authors averaged sequences with at least three values out of six and counted those with two or fewer as poor binders.

| CDR-H1 | CDR-H2 | CDR-H3 | replicates, log10 nM | control signals |
|---|---|---|---|---|
| GFPIDEYGIS | VIYADGRRTVYSDNVK | GNYGASIAV | n.d. n.d. n.d. n.d. n.d. n.d. | 1 of 18 (2.41) |
| GFDLNEYGIS | VIYADGRRYHYQDSVK | GNVVGSVLY | n.d. n.d. n.d. n.d. n.d. n.d. | 1 of 18 (0.69) |
| GFDLDEYGIS | VIYADGVREAYIDSVK | GNWSGTIMY | n.d. n.d. n.d. n.d. n.d. n.d. | 0 of 18 |
| GDGLQEYGIS | VIYADGFRSSYANSVK | GTNTGIFMV | n.d. n.d. n.d. n.d. n.d. n.d. | 0 of 18 |
| GFNLDEYGIS | VIYADGRRTGYQDKFK | GANNFSVMM | n.d. n.d. n.d. n.d. n.d. n.d. | 0 of 18 |
| GFDINEYGIS | VIYADGMRRAYAQQVK | GHGEVLSMD | n.d. n.d. n.d. n.d. n.d. n.d. | 1 of 18 (0.19) |
| GDGLLEYGIS | VIYADGMREAYAEDVK | GQTGGTFVL | n.d. n.d. n.d. n.d. n.d. n.d. | 0 of 18 |
| GFNLEDYGIS | VIYADGKRQAYTENVK | CHSDGVMVV | n.d. n.d. n.d. n.d. n.d. n.d. | 0 of 18 |
| KFDIEHYGIS | VIYADGKRTAYSNAVK | GNQGGTFNT | 0.61 0.47 0.33 0.14 0.65 0.46 | 0 of 18 |
| GYDINEYGIS | VIYADGQRTSYVQSVK | GAGDITGLV | n.d. n.d. n.d. n.d. n.d. n.d. | 1 of 18 (3.07) |
| GNTLDEYGIS | VIYADGTRTFYIDDVK | GQMGGNGYV | n.d. n.d. n.d. n.d. n.d. n.d. | 0 of 18 |
| GFDLNEYGVS | VIYADGHRVQYTEDVK | GGNSGAVDN | 1.54 1.59 3.70 1.71 1.31 1.30 | 0 of 18 |
| GFDLDEEGIS | VIYADGIRTAYQDSVK | GQNVATFNV | 1.61 2.66 n.d. 2.89 1.99 2.60 | 0 of 18 |
| GFDLEEYGIS | VIYADGHRSKYANSVK | GGQVDFALL | n.d. n.d. n.d. n.d. n.d. n.d. | 0 of 18 |
| GFDLNEYGIS | VIYADGSRVAYAQNVK | GKNDAISSS | n.d. n.d. n.d. n.d. n.d. n.d. | 0 of 18 |
| GFDLNEYGIS | VIYADGKRTKVTDNVK | GTLTGTAVT | 0.75 1.10 0.54 1.70 1.51 0.79 | 0 of 18 |
| GFDIEKYGIS | VIYADGQRVSYDSSVK | GENAGYFMD | n.d. n.d. n.d. n.d. n.d. n.d. | 0 of 18 |
| GFSLEEYGIS | VIYADGKRTFYVNAVK | GTWGDFGLG | n.d. 2.38 n.d. n.d. n.d. n.d. | 0 of 18 |
| GFQLDEYGIS | VIYADGMRTAYSDSFK | GVVTTKMGI | n.d. n.d. n.d. n.d. n.d. n.d. | 0 of 18 |
| GFQLDEVGIS | VIYADGIRTAYKSKVK | GGNGDSFDI | n.d. n.d. 2.91 1.85 3.63 n.d. | 0 of 18 |
| GDNLDEYGIS | VIYADGQRTAYDDPVK | GGQTGNVMV | n.d. n.d. n.d. n.d. n.d. n.d. | 0 of 18 |
| GFDLGEYGIS | VIYADGQRRFYQDAVK | GQSSVNYLA | 0.86 1.02 0.18 0.32 1.21 0.88 | 0 of 18 |
| GFNLDEYGIS | VIYADGSRQFYVDTFK | GNLVGLIVN | n.d. n.d. n.d. n.d. n.d. n.d. | 0 of 18 |
| GNTLDEYGIS | VIYADGSRMAYANKFK | GMDVGTFDQ | n.d. n.d. n.d. n.d. n.d. n.d. | 0 of 18 |
| GSNLDEYGIS | VIYADGMRQAYIEDVK | GQSGVSVFF | n.d. n.d. n.d. n.d. n.d. n.d. | 0 of 18 |
| GKSLDEYGIS | VIYADGKRTMYANDVK | GHVGYIFMM | n.d. n.d. n.d. n.d. n.d. n.d. | 0 of 18 |
| GFNLESYGIS | VIYADGKRSSVSDSVK | GQLGNAFDM | n.d. n.d. n.d. n.d. n.d. n.d. | 0 of 18 |
| GFELDEYGIS | VIYADGHRRAYADDVK | GMHMGSVQH | n.d. n.d. n.d. n.d. n.d. n.d. | 0 of 18 |
| GFNLDEYGVS | VIYADGHRTAYVNTVK | GKTVFVLFD | n.d. n.d. n.d. n.d. n.d. n.d. | 0 of 18 |
| GFEIDEYGIS | VIYADGIRSSYNDNVK | GQLGGAFDL | n.d. n.d. n.d. n.d. n.d. n.d. | 0 of 18 |
| GMDLGEYGIS | VIYADGVRQAYVDKVK | GFNGVDGIV | n.d. n.d. n.d. n.d. n.d. n.d. | 0 of 18 |
| GMDIEDYGIS | VIYADGKRKAYAQKFK | GHTGGTFGD | -0.05 0.66 n.d. 0.41 1.10 n.d. | 0 of 18 |
| GFMLDEYGIS | VIYADGVRTMYIDSVK | GLNGMICDI | n.d. n.d. n.d. n.d. n.d. n.d. | 0 of 18 |
| GFEIQDYGIS | VIYADGLRTSYSDKFK | GIIAGTFNS | 0.42 -0.13 0.24 -0.52 -0.04 0.23 | 0 of 18 |

Again, the first 2 entries without any signal:

CDR-H1,CDR-H2,CDR-H3,"replicates, log10 nM",control signals
GFPIDEYGIS,VIYADGRRTVYSDNVK,GNYGASIAV,n.d. n.d. n.d. n.d. n.d. n.d.,1 of 18 (2.41)
GFDLNEYGIS,VIYADGRRYHYQDSVK,GNVVGSVLY,n.d. n.d. n.d. n.d. n.d. n.d.,1 of 18 (0.69)